# Compound activity deposited in PubChem BioAssay by National Center for Advancing Translational Sciences (NCATS).
# Most compounds without a hit are left out; they make up all but 2.3% or so of the library.
# Mito fusion yeast: blocks mitochondrial division or promotes mitochondrial fusion; Potency, µM (doses to about 46.1 µM), most hits filed as activators; actives 0.23% (n = 320,000); S. cerevisiae fusion-defective mutant growth rescue, CellTiterGlo 48 h; also: nearly all actives have a fitted effect of over 45% in size
#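 Temperature-sensitive fusion-defective S. cerevisiae (e.g. fzo1-1, mgm1-5) were grown with compound in YPEG medium (3% ethanol, 3% glycerol) for 48 hours at 37C. Growth rescue was measured as viability by CellTiterGlo luminescence after 10 minutes at ambient.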
# Nrf2 ARE act: activates Nrf2 signaling. AID 624171. Potency, µM (series often up to 46.1 µM), most hits filed as activators. actives 0.31% (n = 410,000). AREc32 ARE-luciferase reporter (MCF7-derived line), luminescence, 24 h; also: nearly all actives have a fitted effect of over 65% in size
#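 Each well held 1000 AREc32 cells, which were incubated with compound for 24 hr at 37 deg C after overnight attachment, and ARE reporter activity was quantified by firefly luciferase luminescence.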
# miR-21 reporter: miR-21 reporter, rising signal; HeLa miR-21 FLuc reporter, luciferase, 48 h; Potency, µM (doses to about 38.3 µM); 340,000 tested, under 10 active; AID 2288; active = well fitted rising curve with a large enough effect; inconclusive = small, poorly fitted or top-dose-only effect; inactive = no such curve, though single readings can be large or run the other way;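 further: miR-21 action dims this reporter so a rising signal means less miR-21 action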
#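 Compounds were titrated across several concentrations (up to approximately 40 uM) and incubated 48 hours with HeLa miR-21-FLuc reporter cells (miR-21 target sequence downstream of FLuc, endogenous miR-21). Readout was firefly luciferase luminescence after lytic detection reagent.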
# A549 tox-1: A549 cytotoxicity, counter-screen for Nrf2 inhibitors; actives 0.16% (n = 390,000); A549 ARE-Fluc cells, CellTiter-Fluor viability, 18-24 h; Potency, µM (doses to about 46 µM), usual class: inhibitors; AID 504648
#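 A549 ARE-Fluc cells in 5% FBS OPTI-MEM, 5000 cells/well, rested 2 h then exposed to compounds in concentration-response for 18-24 h at 37 °C. Viability by CellTiter-Fluor fluorescence (Ex 405/Em 525) after 30 min; luciferase luminescence (BugLite, 15 min, RT) read afterwards.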
# Nrf2 block: blocks Nrf2 signaling. A549 ARE-Fluc reporter, luciferase luminescence, 18-24 h. Potency, µM (top dose mostly 46 µM), actives largely listed as inhibitors. actives 2.1% (n = 360,000); also: nearly all actives have a fitted effect of over 60% in size
#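 Two sequential reads on A549 ARE_Fluc cells exposed to compound for 18-24 h: a CellTiter-Fluor fluorescence read for viability, then a luciferase luminescence read for Nrf2/ARE activity.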
# FLuc enzyme inh: firefly luciferase inhibition, Nrf2 hit validation. shares compounds with Nrf2 block. purified firefly luciferase, luminescence inhibition. Potency, µM (titrated, usually from 57.5 µM), usual class: inhibitors. actives 4% (n = 1,400). AID 720522; also: nearly all actives have a fitted effect of over 65% in size
# A549 tox-2: A549 cytotoxicity, Nrf2 inhibitor counterscreen | AID 720523 | A549 ARE-Fluc cells, cytotoxicity counterscreen | Potency, µM (doses to about 46.1 µM), most hits filed as inhibitors | actives 2% (n = 1,400) | shares compounds with Nrf2 block;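 also: cells exposed to compounds for 18 to 24 hours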
# ARE-Fluc inh: reduces Nrf2 ARE reporter signal in A549 cells; shares compounds with Nrf2 block; A549 ARE-firefly luciferase reporter, luminescence; Potency, µM (series often up to 46.1 µM), most hits filed as inhibitors; actives 74% (n = 1,400); AID 720524; also: nearly all actives have a fitted effect of over 65% in size
# Numbers stand for hits; 0 = inactive; ? = inconclusive; - = no result given; [ ] = another dose, or the depositor's remark. Unless noted, calls follow the shape of the dose curve; as a rule, active = well fitted curve in the direction sought with a large enough effect; inconclusive = small, poorly fitted or top-dose-only effect, or another doubt; inactive = no such curve, though single readings can be large; an effect the other way counts as inactive or inconclusive.
SMILES,Mito fusion yeast,Nrf2 ARE act,miR-21 reporter,A549 tox-1,Nrf2 block,FLuc enzyme inh,A549 tox-2,ARE-Fluc inh
Cc1ccc(S(=O)(=O)N2C[C@@H]3CCCC[C@@H]3[C@@H](C)[C@H]2c2cn(Cc3ccccc3)c3ncccc23)cc1,-,0,-,0,5.2µM,0,0,5.2µM
CCN(Cc1ccccc1)C(=O)Cn1c(=O)n(Cc2ccccc2)c(=O)c2c1c1cc(OC)ccc1n2C,-,0,0,0,0[9.27 µM],-,-,-
CCN1/C(=C/c2ccc3cccc(C)c3[n+]2CC)Sc2ccccc21,0,0,0,?,2.6µM,0,?,2.1µM
CCN1/C(=C/c2ccc3cc(C)cc(C)c3[n+]2CC)Sc2cc(C)ccc21,0,0,?,16µM,?,0,?,1.6µM
CCN1/C(=C\c2ccc3cc(C)ccc3[n+]2CC)Sc2cc(C)c(C)cc21,0,0,-,?,8.2µM,0,?,1.8µM
CC[n+]1c(/C=C/c2cc([N+](=O)[O-])ccc2O)ccc2ccccc21,0,0,0,0,?,-,-,-
CCc1ccc(NC(=O)C2CCN(S(=O)(=O)c3cccs3)CC2)cc1,0,0,0,0,3.7µM,0,0,9.2µM
CCc1cccc(NC(=O)C2CCN(S(=O)(=O)c3cccs3)CC2)c1,0,0,0,0,0,-,-,-
COc1ccc(S(=O)(=O)N2CCC(C(=O)Nc3ccc(Oc4ccccc4)cc3)CC2)cc1,-,0,0,0,?,0,0,?
O=C(Nc1nc(-c2ccc3ccccc3c2)cs1)C1CCN(S(=O)(=O)c2cccs2)CC1,0,0,0,0,5.2µM,0,0,?
CC(=O)c1cn(CCOc2ccccc2C)c2ccccc12,0,0,0,0,4.6µM,0,0,6.5µM
Cc1oc(-c2ccc(Cl)cc2)nc1CS(=O)CC(=O)NCCCN1CCCC(C)C1 (stereo unspecified),0,0,0,0,0,-,-,-
Cc1oc(-c2ccc(Cl)cc2)nc1CS(=O)CC(=O)NCCCN1CCN(Cc2ccccc2)CC1 (stereo unspecified),0,0,?,0,5.8µM,0,0,12µM
C/C=C1\COC(C(=O)NCCN2CCOCC2)(C(F)(F)F)C=C1C=C(C)C (stereo unspecified),-,-,-,0,?,-,-,-
Cc1nnc(SC(C)C(=O)Nc2ccc(Cl)cn2)n1Cc1ccccc1 (stereo unspecified),0,0,0,?,9.2µM,0,0,?
COc1cccc(C(=O)/C=C2\Sc3ccccc3N2C)c1,0,0,0,0,?,-,-,-
Cc1ccc2c(c1)S/C(=C/c1ccc[n+](CCO)c1)N2C,0,0,?,0,1.2µM,0,0,5.8µM
Cn1cc(S(=O)(=O)N2CCCCCC2)cc1C(=O)N1CCN(c2ccc(Cl)cc2)CC1,-,0,0,0,-,-,-,-
Cc1ccc(C(=O)n2nc(-c3cccnc3)nc2N)cc1,0,0,0,0,1.3µM,0,0,4.6µM
CC(C)CN(C(=O)CSc1ccc2c(c1)OCCO2)c1c(N)n(CC(C)C)c(=O)[nH]c1=O,0,0,-,0,0,-,-,-
CC(C)Cn1c(N)c(C(=O)CSc2ccc3c(c2)OCCO3)c(=O)n(C)c1=O,0,0,0,0,0.65µM,0,0,1.8µM
Cc1cccc(C)c1NC(=O)c1cc(S(=O)(=O)N2CCc3ccccc32)cn1C,0,0,0,0,0,-,-,-
Cn1cc(S(=O)(=O)N2CCc3ccccc32)cc1C(=O)NC(C)(C)C,0,0,0,0,2.1µM,0,0,4.6µM
Nc1c(S(=O)(=O)c2ccccc2)c2nc3ccccc3nc2n1/N=C/c1ccco1,0,0,0,0,5.8µM,?,0,2.1µM
Cc1ccc(S(=O)(=O)c2c(N)n(/N=C/c3ccco3)c3nc4ccccc4nc23)cc1,0,0,0,0,?,-,-,-
